Measurements as given in ChEMBL document CHEMBL4406894, “Design, synthesis and biological evaluation of novel desloratadine derivatives with anti-inflammatory and H1 antagonize activities” (Bioorg Med Chem Lett, 2019).

By UniProt entry, the sequences of proteins in these tests, tags left out.
UniProt P35367, whole entry: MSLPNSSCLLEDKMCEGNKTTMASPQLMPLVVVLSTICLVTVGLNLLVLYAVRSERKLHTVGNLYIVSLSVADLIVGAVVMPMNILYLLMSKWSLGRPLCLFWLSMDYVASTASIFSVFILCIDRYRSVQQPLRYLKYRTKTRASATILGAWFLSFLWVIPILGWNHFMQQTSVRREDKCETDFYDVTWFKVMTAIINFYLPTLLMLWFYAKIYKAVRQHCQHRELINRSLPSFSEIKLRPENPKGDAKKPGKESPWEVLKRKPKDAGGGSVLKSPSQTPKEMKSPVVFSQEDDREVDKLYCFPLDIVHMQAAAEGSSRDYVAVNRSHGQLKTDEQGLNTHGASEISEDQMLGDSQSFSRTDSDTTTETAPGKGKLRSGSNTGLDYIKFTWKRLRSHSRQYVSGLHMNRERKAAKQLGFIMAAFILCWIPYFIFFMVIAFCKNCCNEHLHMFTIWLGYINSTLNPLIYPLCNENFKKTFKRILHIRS

Test system: not listed separately
Assay: Half life in monkey liver microsomes incubated for 6 hrs by LC/MS analysis
Assay type: ADME, Macaca mulatta, Microsome
Conditions: rhesus monkey

For `COc1ccccc1OCC(O)CN1CCC(=C2c3ccc(Cl)cc3CCc3cccnc32)CC1` (racemic), the half-life was 1.65 min.

Biological target: Histamine H1 receptor (Homo sapiens, UniProt P35367)
Conditions: not given

In order of falling IC50:
1. OC(COc1ccccc1C(F)(F)F)CN1CCC(=C2c3ccc(Cl)cc3CCc3cccnc32)CC1 (centres undefined)  81.8 nM
2. O=[N+]([O-])c1ccccc1OCC(O)CN1CCC(=C2c3ccc(Cl)cc3CCc3cccnc32)CC1 (centres undefined)  52.9 nM
3. OC(COc1ccccc1Br)CN1CCC(=C2c3ccc(Cl)cc3CCc3cccnc32)CC1 (centres undefined)  40.2 nM
4. OC(COc1ccccc1OC(F)(F)F)CN1CCC(=C2c3ccc(Cl)cc3CCc3cccnc32)CC1 (centres undefined)  36.7 nM
5. OC(COc1ccccc1Cl)CN1CCC(=C2c3ccc(Cl)cc3CCc3cccnc32)CC1 (centres undefined)  28.4 nM
6. COc1c(OCC(O)CN2CCC(=C3c4ccc(Cl)cc4CCc4cccnc43)CC2)ccc(F)c1F (centres undefined)  27.9 nM
7. CC(=O)c1ccccc1OCC(O)CN1CCC(=C2c3ccc(Cl)cc3CCc3cccnc32)CC1 (centres undefined)  21 nM
8. CCOc1ccccc1OCC(O)CN1CCC(=C2c3ccc(Cl)cc3CCc3cccnc32)CC1 (centres undefined)  17.6 nM
9. COc1ccc(OCC(O)CN2CCC(=C3c4ccc(Cl)cc4CCc4cccnc43)CC2)cc1 (centres undefined)  12 nM
10. COc1ccccc1OCCCN1CCC(=C2c3ccc(Cl)cc3CCc3cccnc32)CC1  9.28 nM
11. Cc1ccccc1OCC(O)CN1CCC(=C2c3ccc(Cl)cc3CCc3cccnc32)CC1 (centres undefined)  8.9 nM
12. COc1cccc(OCC(O)CN2CCC(=C3c4ccc(Cl)cc4CCc4cccnc43)CC2)c1 (centres undefined)  8.14 nM
13. OC(COc1ccccc1)CN1CCC(=C2c3ccc(Cl)cc3CCc3cccnc32)CC1 (centres undefined)  6.23 nM
14. OC(COc1ccccc1F)CN1CCC(=C2c3ccc(Cl)cc3CCc3cccnc32)CC1 (centres undefined)  4.74 nM
15. COc1ccccc1OC[C@@H](O)CN1CCC(=C2c3ccc(Cl)cc3CCc3cccnc32)CC1  4.56 nM
16. COc1ccccc1OC[C@H](O)CN1CCC(=C2c3ccc(Cl)cc3CCc3cccnc32)CC1  3.67 nM
17. COc1ccccc1OCC(O)CN1CCC(=C2c3ccc(Cl)cc3CCc3cccnc32)CC1 (racemic)  2.95 nM

Test system: not listed separately
Assay: Intrinsic clearance in monkey liver microsomes incubated for 6 hrs by LC/MS analysis
Assay type: ADME, Macaca mulatta, Microsome
Conditions: rhesus monkey, read-out: CLH

In the case of `COc1ccccc1OCC(O)CN1CCC(=C2c3ccc(Cl)cc3CCc3cccnc32)CC1` (racemic), the microsomal CLint is reported as 844 µL/min/mg.
